The values below come from ChEMBL document CHEMBL1144303, “Structure-based design, synthesis and biochemical testing of novel and potent Smac peptido-mimetics” (Bioorg Med Chem Lett, 2005).

Amino acid sequences for entries named in this document (tags omitted).
UniProt P98170, whole entry: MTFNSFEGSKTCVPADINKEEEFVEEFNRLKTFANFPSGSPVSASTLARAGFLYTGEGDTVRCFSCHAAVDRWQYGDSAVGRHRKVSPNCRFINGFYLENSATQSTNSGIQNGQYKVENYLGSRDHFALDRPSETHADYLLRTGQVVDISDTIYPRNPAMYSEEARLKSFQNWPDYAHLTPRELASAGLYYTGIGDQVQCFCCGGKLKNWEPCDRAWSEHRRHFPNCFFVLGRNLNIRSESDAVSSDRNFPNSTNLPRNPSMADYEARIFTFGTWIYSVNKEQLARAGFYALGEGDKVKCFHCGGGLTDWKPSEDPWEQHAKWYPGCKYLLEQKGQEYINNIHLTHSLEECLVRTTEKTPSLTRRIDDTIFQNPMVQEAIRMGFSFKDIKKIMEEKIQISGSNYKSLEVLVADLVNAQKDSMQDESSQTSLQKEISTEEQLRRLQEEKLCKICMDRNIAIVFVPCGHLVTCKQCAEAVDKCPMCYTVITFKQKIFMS

The target of this experiment is E3 ubiquitin-protein ligase XIAP (Homo sapiens, UniProt P98170).

The structures appear in SMILES notation.

As a reminder, the Ki is the equilibrium dissociation constant of an inhibitor or competing ligand from its target. A high value points to lower affinity. In turn, `CC(C)[C@H](NC(=O)[C@H](C)N)C(=O)N1CCC[C@H]1C(=O)NC(c1ccccc1)c1ccccc1` displayed an inhibition constant (Ki) of 28 nM.
